The list shows a part of the results, in another mix than the full data. Inconclusive results are not listed. Calls of active or inactive are those of the source. Unless noted, the call rests on the fitted dose curve; in most records, active means well fitted curve in the direction sought with a large enough effect; inconclusive means small, poorly fitted or top-dose-only effect, or another doubt; inactive means no such curve, though single readings can be large; an effect the other way counts as inactive or inconclusive.
Tests used:
[1] = target: Flap endonuclease 1 (Homo sapiens) (UniProt P39748); assay: qHTS Validation Assay for the Inhibitors of Human Flap endonuclease 1 (FEN1) (AID 488816); conditions: FEN1 nuclease activity, fluorogenic DNA substrate; at 57.1 µM (top of the series); further: on the % scale 0 is the no-effect control and ±100 the full control effect
In short: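 Readings taken at 0 and 15 min after starting the reaction with 50 nM (final) substrate supplied the signal. Compounds had first sat with 10 nM FEN1 reagent for 15 min at room temperature. Values come from Hill-equation concentration-response fits.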

Sequences of proteins named here, by UniProt entry; tags and fusion partners are left off. A change or cut given only in a name is not applied to a line headed by its entry.
UniProt P39748, whole entry, looked up: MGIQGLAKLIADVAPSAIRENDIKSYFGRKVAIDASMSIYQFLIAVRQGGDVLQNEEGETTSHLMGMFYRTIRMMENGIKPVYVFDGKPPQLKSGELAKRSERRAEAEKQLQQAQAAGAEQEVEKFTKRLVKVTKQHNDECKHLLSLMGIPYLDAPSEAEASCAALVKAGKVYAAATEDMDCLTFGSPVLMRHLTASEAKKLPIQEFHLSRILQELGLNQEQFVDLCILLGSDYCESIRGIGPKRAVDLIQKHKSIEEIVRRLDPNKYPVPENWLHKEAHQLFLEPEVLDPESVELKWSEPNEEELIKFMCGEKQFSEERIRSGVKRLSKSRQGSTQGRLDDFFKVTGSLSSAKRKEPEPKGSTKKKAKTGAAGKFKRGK
UniProt P83916, whole entry, looked up: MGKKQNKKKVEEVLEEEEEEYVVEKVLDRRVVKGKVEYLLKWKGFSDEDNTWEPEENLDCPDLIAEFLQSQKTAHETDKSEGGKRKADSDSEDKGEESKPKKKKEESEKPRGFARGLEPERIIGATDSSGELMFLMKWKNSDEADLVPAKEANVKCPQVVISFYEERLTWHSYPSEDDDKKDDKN
UniProt Q6LX38: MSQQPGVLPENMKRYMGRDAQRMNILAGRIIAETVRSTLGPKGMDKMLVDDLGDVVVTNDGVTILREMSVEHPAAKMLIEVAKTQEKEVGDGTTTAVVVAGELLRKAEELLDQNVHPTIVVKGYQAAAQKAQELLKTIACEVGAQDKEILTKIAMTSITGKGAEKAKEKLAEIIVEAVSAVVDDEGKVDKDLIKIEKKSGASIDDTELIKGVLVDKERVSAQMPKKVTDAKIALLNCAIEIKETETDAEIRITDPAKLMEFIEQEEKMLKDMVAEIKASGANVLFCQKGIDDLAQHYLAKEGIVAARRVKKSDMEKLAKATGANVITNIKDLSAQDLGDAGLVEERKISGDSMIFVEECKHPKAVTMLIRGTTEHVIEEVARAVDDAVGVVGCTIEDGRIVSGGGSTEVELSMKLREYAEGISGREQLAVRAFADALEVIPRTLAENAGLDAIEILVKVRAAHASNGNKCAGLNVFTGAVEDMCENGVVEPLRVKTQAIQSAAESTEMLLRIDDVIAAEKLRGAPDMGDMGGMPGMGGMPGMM
UniProt Q8NER1, whole entry, looked up: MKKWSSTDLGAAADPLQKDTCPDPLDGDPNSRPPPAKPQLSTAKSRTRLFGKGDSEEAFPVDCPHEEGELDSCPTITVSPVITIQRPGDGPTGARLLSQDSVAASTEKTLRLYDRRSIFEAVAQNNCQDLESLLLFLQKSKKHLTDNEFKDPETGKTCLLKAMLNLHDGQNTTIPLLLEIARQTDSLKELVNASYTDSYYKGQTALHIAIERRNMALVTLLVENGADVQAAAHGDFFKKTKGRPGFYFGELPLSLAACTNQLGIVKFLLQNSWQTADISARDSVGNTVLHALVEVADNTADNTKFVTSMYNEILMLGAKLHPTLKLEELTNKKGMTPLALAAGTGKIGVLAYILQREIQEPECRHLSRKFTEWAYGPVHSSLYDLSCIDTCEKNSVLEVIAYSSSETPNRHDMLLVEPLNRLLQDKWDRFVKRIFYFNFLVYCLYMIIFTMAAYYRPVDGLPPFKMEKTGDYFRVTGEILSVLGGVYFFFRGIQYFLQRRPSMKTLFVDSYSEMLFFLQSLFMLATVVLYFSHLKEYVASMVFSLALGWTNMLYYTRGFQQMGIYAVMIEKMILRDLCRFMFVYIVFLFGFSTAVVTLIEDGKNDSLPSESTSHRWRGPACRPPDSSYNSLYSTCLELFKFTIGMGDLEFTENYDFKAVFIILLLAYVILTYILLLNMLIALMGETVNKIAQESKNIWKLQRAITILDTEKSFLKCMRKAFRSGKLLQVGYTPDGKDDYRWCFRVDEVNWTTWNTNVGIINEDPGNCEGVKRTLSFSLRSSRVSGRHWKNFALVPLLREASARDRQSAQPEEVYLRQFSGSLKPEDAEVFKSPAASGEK
UniProt P21728, whole entry, looked up: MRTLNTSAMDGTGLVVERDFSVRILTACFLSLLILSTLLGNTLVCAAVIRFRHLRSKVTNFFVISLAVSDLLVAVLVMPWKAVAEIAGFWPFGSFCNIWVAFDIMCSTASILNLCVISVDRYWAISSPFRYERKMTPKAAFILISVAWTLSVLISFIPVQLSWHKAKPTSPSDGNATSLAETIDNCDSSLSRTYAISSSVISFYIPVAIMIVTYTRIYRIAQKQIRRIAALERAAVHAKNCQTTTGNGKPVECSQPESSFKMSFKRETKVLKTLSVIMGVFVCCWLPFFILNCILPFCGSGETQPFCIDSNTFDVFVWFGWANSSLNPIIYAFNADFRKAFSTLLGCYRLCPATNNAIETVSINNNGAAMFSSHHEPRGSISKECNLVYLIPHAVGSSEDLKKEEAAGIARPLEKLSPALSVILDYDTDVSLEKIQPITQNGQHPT
UniProt Q96QE3: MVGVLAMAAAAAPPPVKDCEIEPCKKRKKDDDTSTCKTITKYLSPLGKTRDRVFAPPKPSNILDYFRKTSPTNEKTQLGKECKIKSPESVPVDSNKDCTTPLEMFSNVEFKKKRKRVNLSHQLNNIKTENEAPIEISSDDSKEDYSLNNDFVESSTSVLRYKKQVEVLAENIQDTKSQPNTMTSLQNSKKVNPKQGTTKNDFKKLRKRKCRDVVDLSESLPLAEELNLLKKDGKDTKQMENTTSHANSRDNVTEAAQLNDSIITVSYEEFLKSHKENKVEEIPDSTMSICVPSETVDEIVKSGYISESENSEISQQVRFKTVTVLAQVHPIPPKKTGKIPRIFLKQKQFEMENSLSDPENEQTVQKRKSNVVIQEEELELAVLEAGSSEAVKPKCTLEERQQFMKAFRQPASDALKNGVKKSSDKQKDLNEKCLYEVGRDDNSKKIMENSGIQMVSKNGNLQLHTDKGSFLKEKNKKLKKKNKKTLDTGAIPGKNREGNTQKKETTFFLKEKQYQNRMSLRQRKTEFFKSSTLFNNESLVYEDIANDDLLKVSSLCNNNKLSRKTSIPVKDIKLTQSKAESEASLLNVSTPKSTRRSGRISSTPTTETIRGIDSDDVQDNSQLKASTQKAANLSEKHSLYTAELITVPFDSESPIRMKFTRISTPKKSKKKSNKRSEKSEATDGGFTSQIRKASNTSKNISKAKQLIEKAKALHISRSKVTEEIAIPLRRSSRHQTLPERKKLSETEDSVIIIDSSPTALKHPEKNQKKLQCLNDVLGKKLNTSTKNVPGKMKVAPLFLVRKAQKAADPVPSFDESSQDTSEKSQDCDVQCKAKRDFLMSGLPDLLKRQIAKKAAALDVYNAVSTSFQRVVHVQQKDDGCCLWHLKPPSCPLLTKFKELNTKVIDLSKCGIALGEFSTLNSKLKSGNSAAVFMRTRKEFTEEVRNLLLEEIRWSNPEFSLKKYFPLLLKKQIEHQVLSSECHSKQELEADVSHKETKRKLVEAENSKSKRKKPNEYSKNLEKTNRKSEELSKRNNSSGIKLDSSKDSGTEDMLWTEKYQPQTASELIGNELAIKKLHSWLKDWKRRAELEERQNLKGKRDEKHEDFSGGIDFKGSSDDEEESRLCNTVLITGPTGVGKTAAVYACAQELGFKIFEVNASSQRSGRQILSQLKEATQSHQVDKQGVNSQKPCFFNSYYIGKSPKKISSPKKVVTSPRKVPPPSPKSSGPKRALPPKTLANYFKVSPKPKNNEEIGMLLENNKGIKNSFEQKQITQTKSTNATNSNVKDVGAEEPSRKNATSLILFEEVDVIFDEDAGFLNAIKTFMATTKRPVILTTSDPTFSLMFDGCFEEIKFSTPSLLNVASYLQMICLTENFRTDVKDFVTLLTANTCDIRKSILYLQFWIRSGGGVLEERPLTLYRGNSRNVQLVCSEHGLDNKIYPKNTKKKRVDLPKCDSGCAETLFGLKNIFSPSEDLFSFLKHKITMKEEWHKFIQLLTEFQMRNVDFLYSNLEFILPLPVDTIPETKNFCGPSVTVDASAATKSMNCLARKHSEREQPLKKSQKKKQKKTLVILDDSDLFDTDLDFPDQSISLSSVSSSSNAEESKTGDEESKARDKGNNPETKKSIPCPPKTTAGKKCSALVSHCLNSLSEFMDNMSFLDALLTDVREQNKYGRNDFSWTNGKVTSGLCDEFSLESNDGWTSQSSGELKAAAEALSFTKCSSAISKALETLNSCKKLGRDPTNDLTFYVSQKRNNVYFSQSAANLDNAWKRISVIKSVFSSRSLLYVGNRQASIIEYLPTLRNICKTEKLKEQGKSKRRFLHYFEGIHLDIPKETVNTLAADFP
UniProt P34981: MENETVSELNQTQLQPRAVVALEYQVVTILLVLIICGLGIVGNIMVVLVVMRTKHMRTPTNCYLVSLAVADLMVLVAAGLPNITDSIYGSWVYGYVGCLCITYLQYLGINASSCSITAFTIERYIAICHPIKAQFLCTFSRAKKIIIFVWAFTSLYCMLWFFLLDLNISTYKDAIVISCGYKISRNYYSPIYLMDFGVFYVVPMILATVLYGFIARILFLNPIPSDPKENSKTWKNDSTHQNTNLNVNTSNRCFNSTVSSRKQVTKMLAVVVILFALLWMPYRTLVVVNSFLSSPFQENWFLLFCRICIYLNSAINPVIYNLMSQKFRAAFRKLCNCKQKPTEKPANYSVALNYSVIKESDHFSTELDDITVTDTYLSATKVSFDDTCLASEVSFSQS
UniProt P51570: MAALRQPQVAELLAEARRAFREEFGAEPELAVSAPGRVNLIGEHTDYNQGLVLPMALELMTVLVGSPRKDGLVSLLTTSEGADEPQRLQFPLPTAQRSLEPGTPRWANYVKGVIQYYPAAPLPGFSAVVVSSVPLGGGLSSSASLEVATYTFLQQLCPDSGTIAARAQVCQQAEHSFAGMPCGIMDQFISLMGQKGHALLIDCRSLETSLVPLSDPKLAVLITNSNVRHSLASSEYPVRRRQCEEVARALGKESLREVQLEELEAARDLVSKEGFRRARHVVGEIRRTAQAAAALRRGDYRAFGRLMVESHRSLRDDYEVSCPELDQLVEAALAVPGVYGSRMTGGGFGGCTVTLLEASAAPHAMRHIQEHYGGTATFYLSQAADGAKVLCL
UniProt Q13526, whole entry, looked up: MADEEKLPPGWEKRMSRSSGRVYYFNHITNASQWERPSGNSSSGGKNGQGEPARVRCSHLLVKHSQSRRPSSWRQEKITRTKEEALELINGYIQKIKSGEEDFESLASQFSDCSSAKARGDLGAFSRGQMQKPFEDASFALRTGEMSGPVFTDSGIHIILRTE

[2] = target: Chromobox protein homolog 1 (Homo sapiens) (UniProt P83916); assay: qHTS Validation Assay for Inhibitors of HP1-beta Chromodomain Interactions with Methylated Histone Tails (AID 488953); conditions: HP1-beta chromodomain / methylated histone peptide binding assay; at 114 µM (top of the series);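 further: loss of AlphaScreen luminescence from HP1-beta binding biotinylated H3K9me3 peptide; on the % scale 0 is the no-effect control and ±100 the full control effect; nearly all actives have a fitted effect of over 50% in size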
[3] = target: Methanococcus maripaludis chaperonin (MmCpn) (UniProt Q6LX38); assay: High-Throughput Screening for Modulators of Cytosolic Chaperonin Activity: MmCpn Primary Screen (AID 488978); conditions: MmCpn chaperonin refolding activity, biochemical qHTS; at 76.9 µM (top of the series);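 further: 50 nM MmCpn enzyme hydrolysing 30 µM ATP at 37 °C; 0% is about no effect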
In short: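 ATPase activity of 50 nM MmCpn was assayed with 30 uM ATP, 10 minutes at 37C, after a 5 min compound preincubation at room temperature. ADP production was read as HTRF emission at 590 and 665 nm.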

[4] = target: Transient receptor potential cation channel subfamily V member 1 (Homo sapiens) (UniProt Q8NER1); assay: HTS Assay for Compounds that Act as Enhancers of the Vanilloid Receptor 1 (AID 488979); conditions: TRPV1-expressing cells, enhancer of channel activity, stimulated with capsaicin at EC20; at 41.7 µM (top of the series); further: 0% is about no effect
In short: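 Calcium influx kinetics via Fluo-8 (480/520 nm) in TRPV1-expressing cells, 2000/well cultured overnight at 35.5C. Compound-alone read 3 min (agonist phase), followed by EC20 capsaicin challenge for 2 min (enhancer phase).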

[5] = target: D(1A) dopamine receptor (Homo sapiens) (UniProt P21728); assay: HTS Assay for Allosteric Agonists of the Human D1 Dopamine Receptor: Primary Screen for Agonists (AID 488981); conditions: D1 receptor-expressing cells, agonist cAMP readout; at 41.8 µM (top of the series); further: 0% is about no effect
In short: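 Calcium flux in an inducible, force-coupled HEK293 Trex D1 line (overnight at 30 C): agonist mode is the 180 s kinetic read after compound; potentiator mode is the following 180 s read after dopamine at EC20.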

[6] = target: D(1A) dopamine receptor (Homo sapiens) (UniProt P21728); assay: HTS Assay for Allosteric Agonists of the Human D1 Dopamine Receptor: Primary Screen for Potentiators (AID 488982); conditions: D1 receptor cells, potentiator mode, cAMP signal; at 8.37 µM (top of the series); further: 0% is about no effect
[7] = target: D(1A) dopamine receptor (Homo sapiens) (UniProt P21728); assay: HTS Assay for Allosteric Agonists of the Human D1 Dopamine Receptor: Primary Screen for Antagonists (AID 488983); conditions: D1 receptor cell assay, antagonist mode, qHTS titration; at 41.8 µM (top of the series);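 further: calcium flux response to an EC80 dopamine challenge measured with no-wash dye; on the % scale 0 is the no-effect control and ±100 the full control effect; nearly all actives have a fitted effect of over 65% in size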
[8] = Validation screen for small molecules that induce genotoxicity in human embryonic kidney (HEK293T) cells expressing luciferase-tagged ELG1 (AID 493106); conditions: luminescence; at 46.1 µM (top of the series); further: 0% is about no effect
In short: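 Reporter-gene quantitative HTS in HEK293T cells carrying luciferase-tagged ELG1, whose level climbs under genotoxic stress. Compound exposure lasts 16 hr at 37 °C before luciferase detection.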

[9] = target: ATPase family AAA domain-containing protein 5 (Homo sapiens) (UniProt Q96QE3); assay: Validation screen for small molecules that inhibit ELG1-dependent DNA repair in human embryonic kidney (HEK293T) cells expressing luciferase-tagged ELG1 (AID 493107); conditions: HEK293T ELG1-luciferase level, luminescence, 5-fluorouridine co-treatment, 16 h; at 46.1 µM (top of the series);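 further: cells co-treated with the DNA-damaging agent 5-fluorouridine alongside compound; on the % scale 0 is the no-effect control and ±100 the full control effect; inhibitors lower the ELG1-luciferase luminescence signal; nearly all actives have a fitted effect of over 70% in size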
In short: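 Quantitative HTS in HEK293T cells carrying luciferase-tagged ELG1, stimulated with 5-fluorouridine alongside compound for 16 hr. Loss of luciferase signal marks inhibition of ELG1 response.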

[10] = target: Thyrotropin-releasing hormone receptor (Homo sapiens) (UniProt P34981); assay: qHTS for Small Molecule Agonists and Allosteric Enhancers of Human TRH Receptor: Validation Screen for Agonists (AID 493127;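 active means calcium activation more than 3 SD above the typical response in the agonist read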;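 further: intracellular calcium rise by fluo-8 fluorescence before TRH EC20 addition; 0% is about no effect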); conditions: TRH receptor agonist cell assay; at 2 µM; active compounds read high
In short: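 Gq-coupled calcium mobilization in TRHR cells after compound addition, monitored kinetically with fluo-8 dye on an FDSS reader.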

[11] = Nrf2 qHTS screen for inhibitors: Validation (AID 493153; active means well fitted inhibition curve with a large enough effect in the main read-out, with a control signal flat, not every such curve was filed as active;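 further: A549 cells with ARE-driven firefly luciferase reporter reporting Nrf2 activity; % of control where 0% means no effect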); conditions: A549 ARE-Fluc reporter, luciferase luminescence, 18-24 h; at 46.1 µM (top of the series)
[12] = qHTS for Inhibitors of Cell Surface uPA Generation: Validation Assay (AID 493164); conditions: mouse cells, plasminogen activation; at 38.3 µM (top of the series);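 further: RAW 264.7 macrophage cells exposed to compound for 18 h; 0% is about no effect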
In short: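 RAW 264.7, 4000 cells/well, o/n plating; cpd 7-pt 1:5 dilution 2.45 nM–38.3 uM final; 18 h, 37 C/5% CO2; ATP-Lite, 5 s luminescence exposure.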

[13] = target: Galactokinase (Homo sapiens) (UniProt P51570); assay: qHTS Validation Assay for Inhibitors of Human Galactokinase (GALK) (AID 493189); conditions: purified human GALK enzyme activity, qHTS 7-point titration; at 57.5 µM (top of the series); further: 0% is about no effect
In short: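 Inhibition was measured as remaining ATP, detected by luciferase luminescence after a 1 h room-temperature reaction. Final conditions: 5 nM GALK, 100 uM galactose, 35 uM ATP, pH 8.0 HEPES buffer.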

[14] = target: Peptidyl-prolyl cis-trans isomerase NIMA-interacting 1 (Homo sapiens) (UniProt Q13526); assay: qHTS Validation Assay to Find Inhibitors of Pin1 (AID 504536; active means well fitted inhibition curve with a large enough effect in the polarisation, with a control signal flat, not every such curve was filed as active; the % refers to the polarisation;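 further: 0% = full Pin1 enzyme wells and -100% = no-enzyme wells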); conditions: Pin1 fluorescence polarization peptide binding assay; at 57.5 µM (top of the series)
In short: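 Fluorescence polarization competition: compounds (titration) displace HiFluor-488-labeled Pin1-1b peptide from Pin1 (0.3 uM final) in pH 7.5 HEPES buffer with DTT, 10 min at room temperature; %Activity normalized to no-enzyme wells, curves fitted.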

[15] = Inducers of the Endoplasmic Reticulum Stress Response (ERSR) in human glioma: Validation (AID 504836); conditions: human glioma cells, ER stress response reporter; at 38.3 µM (top of the series); further: 0% is about no effect
In short: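 ERSR induction read as luciferase luminescence (Bright-Glo, 10 min at room temperature) in stably transfected human U87-MG glioma cells exposed to compounds for 16 h, using GRP78 as sensor.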

CN(C(=O)Cc1ccc(Cl)c(Cl)c1)[C@@H]1CC[C@]2(CCCO2)C[C@H]1N1CCCC1
inactive: activity, negative = inhibition [1] -8.56% | activity change, negative = inhibition [2] -10.9% | activity change, negative = inhibition [3] 0.648% | activity change, positive = enhancement [4] 24.6% | activation [5] 10% | activity, positive = potentiation [6] 13% | activity change, negative = inhibition [7] 3.21% | activity change, positive = ELG1 induction [8] -7.37% | activity change, negative = decrease [9] -5.22% | activation [10] 0.562% | activity change, negative = inhibition [11] 4.34% | activity change [12] -0.875% | activity change, negative = inhibition [13] 25.1% | activity, negative = inhibition [14] -13.1% | activation [15] 0.194%
